# Experimental water solubility values from OPERA 2.9

From the experimental data distributed with OPERA 2.9.

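The OPERA project collected these measurements from public sources as training and test data for property models. One number stands for a compound and property, with no spread given. Method and conditions are not stated for these values. The measured form (salt, isomer or mixture) is not always the one drawn. Unmarked limits or estimates from the upstream databases cannot be ruled out.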

Water solubility is log10 of mol/L, nominally at 25 °C; higher is more soluble.

structure (SMILES),log solubility (log10 mol/L)
OCCN1CCN(CCC=C2c3ccccc3Sc3ccc(C(F)(F)F)cc32)CC1,-5.161
Nc1ccccc1N,-0.42
Cc1cc2cccc(O)c2nc1C,-1.319
ClC(Cl)=C=C(Cl)C(Cl)Cl,-4.23
Cc1[nH]n(-c2ccccc2)c(=O)c1N=Nc1ccc(-c2ccc(N=Nc3c(C)[nH]n(-c4ccccc4)c3=O)c(Cl)c2)cc1Cl,-8.142
CCOC(=O)Nc1ncnc2nc[nH]c12,-2.94
CC(=O)C(N=Nc1ccc([N+](=O)[O-])cc1)C(=O)Nc1ccc2[nH]c(=O)[nH]c2c1 (stereo not given),-7.526
CCCCOCOCCCC,-2.832
CN1CC(C(=O)O)CC1=O (stereo not given),-0.954
CS(=O)(=O)OCCCCOS(C)(=O)=O,-2.267
O=C(O)CN[C@@H](Cc1ccc(O)cc1)C(=O)O,-2.598
COCOC,0.48
O=C(N/N=C/C=C/c1ccc([N+](=O)[O-])o1)c1ccncc1,-3.98
COc1ccc(C(C)=O)cc1,-1.86
OC(c1ccccc1)C(O)c1ccccc1 (racemic),-1.933
CC(OC(=O)NCC1(CC(=O)O)CCCCC1)OC(=O)C(C)C (stereo not given),-2.819
CCCCCCCCCc1cc2ccccc2c(S(=O)(=O)[O-])c1CCCCCCCCC.CCCCCCCCCc1cc2ccccc2c(S(=O)(=O)[O-])c1CCCCCCCCC.[Zn+2],-4.788
CCCCCCCCCCCCCCCCCC(=O)OCCCC,-2.3
OC(Cc1ccccc1)c1ccccc1 (stereo not given),-2.52
O=S1(=O)c2ccccc2S(=O)(=O)c2cc(O)ccc21,0.416
O=C(O)/C=C/c1ccccc1O[C@@H]1O[C@H](CO)[C@@H](O)[C@H](O)[C@H]1O,-1.514
NNc1nncc2ccccc12,-1.996
N#CCC(=O)NCc1ccccc1,-2.065
O=C1NC(=O)C2C(N1)NC(=O)N2CO (stereo not given),-1.903
O=C1c2c(O)ccc(O)c2C(=O)c2c(Cl)ccc(Cl)c21,-7.418
CC(=O)OCCCCCc1ccc(S(N)(=O)=O)cc1,-2.376
O=c1cnc2cnc(=O)[nH]c2[nH]1,-2.361
CCCC(=O)OCOc1ccccc1C(N)=O,-1.977
c1ccc2c(c1)ccc1cc3c(ccc4ccccc43)cc12,-8.483
O=C(O)c1c(Cl)c(Cl)c(C(=O)O)c(Cl)c1Cl,-2.48
NS(=O)(=O)c1cc2c(s1)[S+]([O-])CCC2O (stereo not given),-1.348
COC(=O)c1ccc(N)cc1,-1.59
CC(O)(CN)C(=O)O (stereo not given),-1.336
CO[C@H]1O[C@H](C(=O)O)[C@H](O)[C@H](O)[C@H]1O,0.014
O=C(O)C(F)(F)C(F)(F)C(F)(F)C(F)(F)C(F)(F)C(F)(F)C(F)(F)C(F)(F)C(F)(F)C(F)(F)C(F)(F)F,-6.072
NC(=O)N(CCCO)N=Cc1ccc([N+](=O)[O-])o1,-2.6
CC(COC=O)OC=O (stereo not given),-3.19
CC(=O)C(N=Nc1cc(C(=O)Nc2cc(Cl)ccc2C)ccc1Cl)C(=O)Nc1cc(C)c(NC(=O)C(N=Nc2cc(C(=O)Nc3cc(Cl)ccc3C)ccc2Cl)C(C)=O)cc1C (stereo not given),-7.263
C=C(C)C1CCC(C)(O)CC1 (stereo not given),-1.846
CCSC(=S)OC(CC(=O)O)C(=O)O (stereo not given),-1.6
O=C(O)/C(Br)=C\Br,-0.669
CC(C)CCC(C)C(=O)O (stereo not given),-1.983
CCCCCCCC/C=C\CCCCCCCC(=O)OCC(CC)(CO)COC(=O)CCCCCCC/C=C\CCCCCCCC,-7.69